Measured affinities in a library of Ab-14 heavy chain variants

Antigen: PDVDLGDISGINAS, a 14-residue peptide of the SARS-CoV-2 spike HR2 region.

Parent scFv Ab-14: VH joined to VL by a (GGGGS)3 linker. Changes lie in the heavy chain CDRs alone.
VH: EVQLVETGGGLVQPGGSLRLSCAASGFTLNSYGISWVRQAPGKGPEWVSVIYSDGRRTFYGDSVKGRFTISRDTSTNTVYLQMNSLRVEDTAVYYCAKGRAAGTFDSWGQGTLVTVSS
VL: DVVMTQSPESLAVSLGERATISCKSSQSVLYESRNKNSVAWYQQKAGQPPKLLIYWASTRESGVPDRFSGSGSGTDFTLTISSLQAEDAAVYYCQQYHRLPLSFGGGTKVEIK

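The parent was found by panning a naive human phage display library on the peptide. These sequences belong to a second round, designed from the earlier measurements on random variants of the parent. Several design methods are mixed in this list. Affinity was read by AlphaSeq, a pooled yeast mating assay with surface-displayed partners. The frequency of each diploid, read from paired DNA barcodes, reflects how well the two displayed proteins bind. Scores were corrected for input abundance and mapped to Kd with protein pairs of known affinity run in the same pool. Mating was done six times.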

The parent's heavy chain CDRs are GFTLNSYGIS, VIYSDGRRTFYGDSVK, GRAAGTFDS; each variant's own CDRs replace them letter for letter.
Scale: log10 of Kd in nM, estimated from mating counts; low values are strong binders.
An entry "ND" has no value in the source: the pair was not observed among the diploids in that replicate. This suggests poor binding but is not conclusive.
The authors' rule: three or more of the six replicates give a measured affinity, fewer mean a poor binder.

CDR-H1,CDR-H2,CDR-H3,"replicates, log10 nM"
GFNLNEYGIS,VIYADGVRTFYADSVK,GQIAGTFDV,-0.44 -0.08 -0.73 -0.31 -0.45 0.00
GFTLNSYGIS,VIYSDGKRTFYIDSVK,GREAGTFDT,ND 1.04 ND ND ND 0.07
GFQLNSYGIS,VIYSDGRRTFYSDSVK,GRTAGTFDS,0.37 0.31 0.19 0.21 0.58 0.36
GEDLDEYGVS,VIYADGIRSTYADKVK,GKHGAAFFV,ND ND ND ND ND ND
GFTLGSYGIS,VIYSDGRRTFYGDSVK,GRAAGNFDS,ND ND 1.96 1.73 ND 1.84
GFSLNSYGIS,VIYSDGRRTFYSDNVK,GRAAGTFMS,ND ND ND ND ND ND
GFELNSYGIS,VIYSDGRRTFYGDSVK,GRGAGTFDS,ND 2.02 ND ND ND ND
GFTLNNYGIS,VIYSDGQRTFYGDSVA,GRAAVTFDS,ND 1.23 ND ND ND ND
GFTLNEYGIS,VIYSDGRRTFYGDSVK,GRTAGTFKQ,ND ND ND ND ND 2.89
GFSLKSYGIS,VIYSDGRRTFYGDSVK,GQAAGTFDS,ND ND ND ND 1.05 ND
GFTLNSYGIS,VIYSDGRRTFYYDSVR,GRAAGTFDS,ND ND ND ND ND ND
GFDLNSYGIS,VIYSDGRRTFYGDSVK,GREAGTFDM,0.26 0.10 0.09 0.01 0.13 0.01
GNTLNDYGIS,VIYSDGRRTMYIDSVK,GRAAGTFDS,ND 1.50 ND ND ND ND
GFDLMNYGIS,VIYADGKRAAYIDDVK,GYSTGFLDV,ND ND ND ND ND ND
GFTLNSHGIS,VIYSDGRRTFYGDSVK,GRATGTFDS,ND ND ND ND ND ND
GFDLNEYGIS,VIYADGRRTFYSDSVK,GQNGGTFDI,-0.83 -0.66 -0.66 -0.66 -0.08 ND
GFTLNSYGIS,VIYADGRRTFYGDQVK,GRAAGTFDS,-0.25 -0.37 0.18 0.16 0.90 0.54; 0.73 0.54 1.49 0.94 1.17 0.88

The remaining entries, values ahead:

"replicates, log10 nM",CDR-H1,CDR-H2,CDR-H3
ND ND ND ND ND ND,GFTINSYGIS,VIYSDGRRTWYGDSVK,DRAAGTKDS
0.50 0.88 0.73 0.26 0.42 1.26,GFSLNEYGIS,VIYSDGRRTFYTDRVK,GEAAGTFDS
ND 1.66 1.69 ND 3.71 1.54,GFSLNWYGIS,VIYSDGRRTFYGDSVK,GRQAGTFDS
ND ND ND ND ND ND,GFDLDKYGIS,VIYADGRRKAYQNQFK,GGQTGTFDI
1.09 0.42 0.35 0.54 0.61 ND,GMTLNSYGIS,VIYSDGRRTFYDDSVK,GQLAGTFDS
0.01 -0.43 -0.35 -0.26 0.02 -0.21,GFDLNEYGIS,VIYADGMRTSYADSVK,GNVAGTFDV
ND ND ND ND ND ND,GFTLNSYGIS,VIYSDGRRTFYIDSVK,GYAIGTFDS
ND ND ND ND ND ND,GFVIDEYGIS,VIYADGSRQVYQDKVK,GKGTGNFTT
0.53 0.13 0.83 0.20 0.81 1.04,GKTLNSYGIS,VIYADGRRTFYGDSVK,GRVAGTFDS
0.11 0.25 0.05 -0.18 -0.38 0.08,GFGLNSYGIS,VIYSDGRRTFYSDSVK,GQTAGTFDS
-0.68 -0.58 -0.96 -0.96 -0.72 -0.75,GFDLNEYGIS,VIYADGRRTAYDDSVK,GEAAGTFDQ
0.87 0.69 0.35 0.20 0.53 0.52,GFNLNEYGIS,VIYSDGRRTFYHDSVK,GRFAGTFDS
ND ND ND ND ND ND,GFTLNDYGIS,VIYSDGRRTFYGDSVK,GRAAGTFCV
-0.36 0.09 -0.73 -0.90 0.03 -0.50,GFDLDEYGIS,VIYADGVRKAYADSVK,GNVAGTFDI
ND ND 2.05 ND ND ND,GFEIQEFGIS,VIYADGIRTNYSENVK,GTLAGTFTT
ND 1.17 ND ND 0.61 1.59,GFTLNSYGIS,VIYSDGRRTFYGDSVK,GNNAGTFNS
ND ND ND ND ND ND,GFSLNSYGIS,VIYSDGRRTFYDDSVK,GWVAGTFDS
ND ND ND ND ND ND,FFKLEDYGIS,VIYADGRRTAYVDNFK,GEIAGTFDV

The first 5 entries again:

{"CDR-H1": "GFNLNEYGIS", "CDR-H2": "VIYADGVRTFYADSVK", "CDR-H3": "GQIAGTFDV", "replicates, log10 nM": "-0.44 -0.08 -0.73 -0.31 -0.45 0.00"}
{"CDR-H1": "GFTLNSYGIS", "CDR-H2": "VIYSDGKRTFYIDSVK", "CDR-H3": "GREAGTFDT", "replicates, log10 nM": "ND 1.04 ND ND ND 0.07"}
{"CDR-H1": "GFQLNSYGIS", "CDR-H2": "VIYSDGRRTFYSDSVK", "CDR-H3": "GRTAGTFDS", "replicates, log10 nM": "0.37 0.31 0.19 0.21 0.58 0.36"}
{"CDR-H1": "GEDLDEYGVS", "CDR-H2": "VIYADGIRSTYADKVK", "CDR-H3": "GKHGAAFFV", "replicates, log10 nM": "ND ND ND ND ND ND"}
{"CDR-H1": "GFTLGSYGIS", "CDR-H2": "VIYSDGRRTFYGDSVK", "CDR-H3": "GRAAGNFDS", "replicates, log10 nM": "ND ND 1.96 1.73 ND 1.84"}

Some sequences occur more than once in the pool; their replicates are listed entry by entry, parted by semicolons.
As a blank, each scFv also met three strains without target: over all heavy chain designs, 1% of these pairings were detected, typically at 2.08 and seldom below 0.84.
The range of this assay differs from that of the first round, and the authors advise against merging the two.

Values reported by Li et al. 2023, doi:10.1038/s41467-023-39022-2 (FLAb copy).